Read-outs that look alike come from different tables or passages of the source.
Assays:
WDR5 = WDR5 (Homo sapiens (Human), UniProt P61964); assay: FP based competitive binding assay to WDR5; conditions: for Ki: Ki calculated by equation of ref. 31, read-out: Ki ± SD
Experimental: Another aspect of the invention is development of a Fluorescent Polarization (FP) based competitive binding assay. […] Next, the millipolarization (mP) values were measured at different time points in order to determine equilibrium duration and stability.
Accordingly, the optimal protein concentrations for the competitive assay was investigated.
All the FP based experiments were performed in MICROFLUOR® 2 Black, “U” Bottom, 96-well Microtiter Plates (ThermoSci.) and FP was measured as mP units in a microplate reader (Tecan Ultra) with excitation at 485 nm and emission at 530 nm. The Kd of the tracers and the IC50 value of the inhibitors were calculated using GraphPad Prism 4 software.
The binding affinities of the synthetic peptides shown in the study were measured using this competitive binding assay. A pre-incubated complex solution of WDR5Δ23 and the tracer in 120 μl assay buffer were added to dilutions of the test compound in 5 μl DMSO, giving final concentrations of WDR5Δ23 and the tracer of 4 nM and 0.6 nM, respectively. […] The plates were incubated with shaking at room temperature. The mP values were measured after five hours of incubation and Ki values were calculated using the equation described previously(31).

[1] = biological target: MLL1 core complex (MLL1, WDR5, RbBP5, Ash2L) (Homo sapiens (Human), UniProt P61964); assay: Inhibition of histone methyltransferase activity of the MLL1 core complex; format: biochemical; conditions: 0.5 μM MLL complex, 50 μM H3 peptide substrate, 30 minutes
[2] = read-out: Binding Affinity to WDR5 (IC50 ± SD), Table 5 peptidomimetics
[3] = 4 nM WDR5Δ23, 0.6 nM 10mer-Thr-FAM tracer
[4] = 4 nM WDR5Δ23, 0.6 nM 10mer-Thr-FAM tracer, read-out: IC50 ± SD

IC50 (WDR5; [2]) [µM]	Compound	also measured
–	CC(=O)NCC(=O)N[C@@H](CCCNC(=N)N)C(=O)N[C@@H](C)C(N)=O [Compound 1A]	IC50 (WDR5; Table 5 peptidomimetics): > 10 µM
< 1	CC[C@H](NC(C)=O)C(=O)N[C@@H](CCCNC(=N)N)C(=O)N[C@@H](C)C(N)=O [Compound 1B]	–
< 1	CC(=O)N[C@H](C(=O)N[C@@H](CCCNC(=N)N)C(=O)N[C@@H](C)C(N)=O)C(C)C [Compound 1C]	–
< 5	CC(=O)N[C@@H](CS)C(=O)N[C@@H](CCCNC(=N)N)C(=O)N[C@@H](C)C(N)=O [Compound 1D]	–
< 50	CC(=O)N[C@@H](CC(C)C)C(=O)N[C@@H](CCCNC(=N)N)C(=O)N[C@@H](C)C(N)=O [Compound 1E]	–
< 50	CC(=O)N[C@H](C(=O)N[C@@H](CCCNC(=N)N)C(=O)N[C@@H](C)C(N)=O)C1CCCCC1 [Compound 1F]	–
< 10	CC(=O)N[C@@H](Cc1c[nH]cn1)C(=O)N[C@@H](CCCNC(=N)N)C(=O)N[C@@H](C)C(N)=O [Compound 1G]	–
< 50	CC(=O)N[C@@H](Cc1ccccc1)C(=O)N[C@@H](CCCNC(=N)N)C(=O)N[C@@H](C)C(N)=O [Compound 1H]	–
< 30	CC(=O)N[C@@H](CO)C(=O)N[C@@H](CCCNC(=N)N)C(=O)N[C@@H](C)C(N)=O [Compound 1I]	–
< 30	CC(=O)N[C@H](C(=O)N[C@@H](CCCNC(=N)N)C(=O)N[C@@H](C)C(N)=O)[C@@H](C)O [Compound 1J]	–
> 1	CC(=O)N[C@@H](C)C(=O)N[C@@H](CCCNC(N)=O)C(=O)N[C@@H](C)C(N)=O [Compound 2D]	–
> 1	CC(=O)N[C@@H](C)C(=O)N[C@@H](CCCNC(=N)N)C(=O)NCC(N)=O [Compound 3A]	–
< 0.1	CC[C@H](NC(=O)[C@H](CCCNC(=N)N)NC(=O)[C@H](C)NC(C)=O)C(N)=O [Compound 3B]	–
< 1	CC(=O)N[C@@H](C)C(=O)N[C@@H](CCCNC(=N)N)C(=O)N[C@H](C(N)=O)C(C)C [Compound 3C]	–
< 1	CC(=O)N[C@@H](C)C(=O)N[C@@H](CCCNC(=N)N)C(=O)N[C@@H](CS)C(N)=O [Compound 3D]	–
> 10	CC(=O)N[C@@H](C)C(=O)N[C@@H](CCCNC(=N)N)C(=O)N[C@@H](CC(C)C)C(N)=O [Compound 3E]	–
> 10	CC(=O)N[C@@H](C)C(=O)N[C@@H](CCCNC(=N)N)C(=O)N[C@H](C(N)=O)C1CCCCC1 [Compound 3F]	–

IC50 (WDR5; [2]) [µM]	Compound	also measured
> 10	CC(=O)N[C@@H](C)C(=O)N[C@@H](CCCNC(=N)N)C(=O)N[C@@H](Cc1ccccc1)C(N)=O [Compound 3G]	–
< 5	CC(=O)N[C@@H](C)C(=O)N[C@@H](CCCNC(=N)N)C(=O)N[C@@H](CO)C(N)=O [Compound 3H]	–
> 10	CC(=O)N[C@@H](C)C(=O)N[C@@H](CCCNC(=N)N)C(=O)N[C@@H](CCC(=O)O)C(N)=O [Compound 3J]	–
< 1	CC(=O)NC(C)(C)C(=O)N[C@@H](CCCNC(=N)N)C(=O)N[C@H](C(N)=O)C(C)C [Compound 4E]	–
< 1	CCC(CC)(NC(C)=O)C(=O)N[C@@H](CCCNC(=N)N)C(=O)N[C@H](C(N)=O)C(C)C [Compound 4F]	–
< 5	CC(=O)N[C@H](C(=O)N[C@@H](CCCNC(=N)N)C(=O)N[C@H](C(N)=O)C(C)C)C(C)(C)C [Compound 4G]	–
< 1	CCC[C@H](NC(C)=O)C(=O)N[C@@H](CCCNC(=N)N)C(=O)N[C@H](C(N)=O)C(C)C [Compound 4H]	–
< 10	CC(=O)N[C@H](C(=O)N[C@@H](CCCNC(=N)N)C(=O)N[C@H](C(N)=O)C(C)C)C1CCCC1 [Compound 4I]	–
< 30	CC(=O)N[C@H](C(=O)N[C@@H](CCCNC(=N)N)C(=O)N[C@H](C(N)=O)C(C)C)c1ccccc1 [Compound 4J]	–
> 10	CC(=O)N[C@@H](C(=O)N[C@@H](CCCNC(=N)N)C(=O)N[C@H](C(N)=O)C(C)C)c1ccccc1 [Compound 4K]	–
> 1	CC(=O)N[C@H](C(=O)N[C@@H](CCCNC(=N)N)C(=O)NC(C)(C)C(N)=O)C(C)C [Compound 5E]	–
> 10	CC(=O)N[C@H](C(=O)N[C@@H](CCCNC(=N)N)C(=O)N[C@H](C(N)=O)C(C)(C)C)C(C)C [Compound 5F]	–
> 10	CC(=O)N[C@H](C(=O)N[C@@H](CCCNC(=N)N)C(=O)N[C@H](C(N)=O)C1CCCC1)C(C)C [Compound 5G]	–
–	CC(C)C[C@H](NC(=O)[C@H](Cc1c[nH]cn1)NC(=O)[C@@H](NC(=O)[C@H](CCC(=O)O)NC(=O)[C@H](C)NC(=O)[C@H](CCCNC(=N)N)NC(=O)[C@H](C)NC(=O)[C@@H](N)CO)C(C)C)C(=O)N[C@@H](CCCNC(=N)N)C(=O)N[C@@H](CCCCN)C(=O)N[C@@H](CO)C(N)=O [Compound H2N-11mer]	Ki (WDR5; [3]): 0.02 ± 0.002 µM; IC50 (WDR5; [4]): 0.08 ± 0.01 µM
–	CC(=O)NCC(=O)N[C@@H](CCCNC(=N)N)C(=O)N[C@@H](C)C(N)=O [GRA]	IC50 [1]: > 100 µM
–	C[C@H](N)C(=O)N[C@@H](CCCNC(=N)N)C(=O)N[C@H](C(=O)N[C@@H](CCCCN(C)C)C(=O)N[C@@H](CCC(N)=O)C(=O)N[C@H](C(=O)N[C@@H](C)C(=O)N[C@@H](CCCNC(=N)N)C(=O)N[C@@H](CCCCN)C(=O)N[C@@H](CO)C(N)=O)[C@@H](C)O)[C@@H](C)O [H3-10mer-K4Me2, H2N-ARTK(Me2)QTARKS-NH2, reference compound]	Ki (WDR5; [3]): 9 ± 1.3 µM
–	CNCCCC[C@H](NC(=O)[C@@H](NC(=O)[C@H](CCCNC(=N)N)NC(=O)[C@H](C)N)[C@@H](C)O)C(=O)N[C@@H](CCC(N)=O)C(=O)N[C@H](C(=O)N[C@@H](C)C(=O)N[C@@H](CCCNC(=N)N)C(=O)N[C@@H](CCCCN)C(=O)N[C@@H](CO)C(N)=O)[C@@H](C)O [H3-10mer-K4Me, H2N-ARTK(Me)QTARKS-NH2, reference compound]	IC50 (WDR5; [4]): 69 ± 7 µM
